# Laboratory results published in paper PMC8333620, “Novel Tl(III) complexes containing pyridine-2,6-dicarboxylate derivatives with selective anticancer activity through inducing mitochondria-mediated apoptosis in A375 cells” (Scientific Reports, 2021).
# System: A375 (a human melanoma) cell line
# Assay: MTT cytotoxicity assay, A375
# Format: cell-based
# Conditions: 48 h, concentration not given
# Experimental: In this study, A375 (a human melanoma), HT29 (a human colon adenocarcinoma), and HFF (a human foreskin fibroblast) cell lines were provided from the Pasteur Institute (Iran). […] 10 mM stock solutions of compounds were prepared in DMSO and diluted in a fresh medium for use. The final concentration of DMSO never exceeded 0.1% (v/v). […] Then the medium was replaced with the respective medium containing ligands or Tl(III) complexes at different concentrations and incubated for 48 h. 10 μL of MTT was added and the medium was removed after 4 h of incubation. Finally, the violet crystal was solubilized in 100 μL DMSO and the absorbance was measured at 570 nm. IC50 value was measured by the standard method. The evaluations were carried out in triplicate[21],[23].
smiles,measurement,value
"O=C1[O][Pt]2([NH][C@@H]3CCCC[C@H]3[NH]2)[O]C1=O [Oxaliplatin, reference compound]","Viability inhibition, A375",46.79%
